The values that follow come from patent US12371450B2.

Sequences of proteins named here, by UniProt entry; tags and fusion partners are left off.
UniProt P43657, whole entry: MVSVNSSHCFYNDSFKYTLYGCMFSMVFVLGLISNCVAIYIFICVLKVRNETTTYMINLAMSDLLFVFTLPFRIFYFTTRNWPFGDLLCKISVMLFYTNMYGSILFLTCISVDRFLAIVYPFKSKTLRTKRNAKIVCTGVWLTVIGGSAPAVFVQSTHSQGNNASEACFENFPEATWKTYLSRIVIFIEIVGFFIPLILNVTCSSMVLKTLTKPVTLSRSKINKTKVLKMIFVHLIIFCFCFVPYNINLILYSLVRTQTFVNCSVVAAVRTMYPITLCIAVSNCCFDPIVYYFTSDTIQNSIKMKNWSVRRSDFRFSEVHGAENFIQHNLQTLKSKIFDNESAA
UniProt Q92633, whole entry: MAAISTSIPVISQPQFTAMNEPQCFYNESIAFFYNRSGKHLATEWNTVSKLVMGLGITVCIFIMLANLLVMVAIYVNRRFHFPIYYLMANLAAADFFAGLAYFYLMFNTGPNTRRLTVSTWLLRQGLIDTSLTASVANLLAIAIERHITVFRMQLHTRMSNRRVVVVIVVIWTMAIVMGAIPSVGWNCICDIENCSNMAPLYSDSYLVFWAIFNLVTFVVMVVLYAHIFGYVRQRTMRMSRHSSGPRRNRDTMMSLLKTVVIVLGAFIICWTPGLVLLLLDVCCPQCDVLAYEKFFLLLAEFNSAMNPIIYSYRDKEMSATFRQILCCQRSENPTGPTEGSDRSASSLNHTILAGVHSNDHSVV
UniProt Q99677, whole entry: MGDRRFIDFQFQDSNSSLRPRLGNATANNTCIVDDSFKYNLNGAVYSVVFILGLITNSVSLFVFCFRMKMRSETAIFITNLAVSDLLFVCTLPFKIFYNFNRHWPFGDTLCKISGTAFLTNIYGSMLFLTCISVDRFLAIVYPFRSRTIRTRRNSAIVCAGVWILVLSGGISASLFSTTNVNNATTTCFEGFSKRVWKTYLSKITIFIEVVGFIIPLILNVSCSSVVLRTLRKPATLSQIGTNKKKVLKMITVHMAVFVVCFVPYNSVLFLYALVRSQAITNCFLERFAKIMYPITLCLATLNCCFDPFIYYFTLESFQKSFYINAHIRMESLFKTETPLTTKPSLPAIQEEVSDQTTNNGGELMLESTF
UniProt Q9UBY5, whole entry: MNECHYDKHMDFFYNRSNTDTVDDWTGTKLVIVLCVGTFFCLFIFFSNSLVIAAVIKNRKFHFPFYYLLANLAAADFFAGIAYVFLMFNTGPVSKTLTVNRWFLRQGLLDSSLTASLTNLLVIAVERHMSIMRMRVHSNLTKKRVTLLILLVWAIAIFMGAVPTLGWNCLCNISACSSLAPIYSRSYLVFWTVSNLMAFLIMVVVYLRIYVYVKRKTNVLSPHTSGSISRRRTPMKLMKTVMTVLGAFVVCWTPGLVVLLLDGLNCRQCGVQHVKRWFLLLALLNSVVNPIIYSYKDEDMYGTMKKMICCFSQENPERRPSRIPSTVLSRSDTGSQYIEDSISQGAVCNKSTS
UniProt Q9H1C0, whole entry: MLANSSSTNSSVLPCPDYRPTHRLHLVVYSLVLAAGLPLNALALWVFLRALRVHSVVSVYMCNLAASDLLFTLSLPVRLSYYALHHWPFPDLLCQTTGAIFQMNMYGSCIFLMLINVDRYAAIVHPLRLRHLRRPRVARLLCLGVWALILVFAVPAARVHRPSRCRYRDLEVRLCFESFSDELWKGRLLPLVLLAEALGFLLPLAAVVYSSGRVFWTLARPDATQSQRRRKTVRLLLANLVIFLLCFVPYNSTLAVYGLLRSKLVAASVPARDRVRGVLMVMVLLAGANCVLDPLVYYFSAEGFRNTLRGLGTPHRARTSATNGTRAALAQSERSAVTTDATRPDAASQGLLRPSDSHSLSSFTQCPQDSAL
UniProt Q9HBW0, whole entry: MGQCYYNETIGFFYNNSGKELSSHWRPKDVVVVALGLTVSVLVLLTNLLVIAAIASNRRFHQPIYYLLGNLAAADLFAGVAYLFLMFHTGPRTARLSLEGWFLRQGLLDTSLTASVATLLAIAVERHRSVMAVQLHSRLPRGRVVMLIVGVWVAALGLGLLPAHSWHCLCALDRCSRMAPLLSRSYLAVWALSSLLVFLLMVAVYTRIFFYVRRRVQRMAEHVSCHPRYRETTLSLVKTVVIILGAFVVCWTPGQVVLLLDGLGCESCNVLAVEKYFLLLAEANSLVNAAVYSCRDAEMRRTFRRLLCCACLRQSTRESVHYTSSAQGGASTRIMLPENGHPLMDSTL

In one data set the target is human LPA6 (Homo sapiens, UniProt P43657). Briefly: AP-TGFα release assay, agonist activity against human LPA6. How it is done:
(§1) HEK293A or ΔLPA2/5/6 HEK293A was suspended in a Dulbecco-modified Eagle's medium (DMEM supplemented with 10% fetal calf serum, 100 U/mL penicillin, and 100 μg/mL streptomycin) to result in a concentration of 2×10^5cells/mL, and the thus obtained suspension was then seeded on a dish having a diameter of 100 mm (10 mL/dish). Thereafter, the cells were incubated at 37° C. in 5% CO2 for 24 hours.
(§2) The below-mentioned plasmid solution (500 μL) was mixed with a polyethyleneimine (PEI, Polysciences) solution (500 μL), and the mixed solution was then incubated at room temperature for 20 minutes. Thereafter, the reaction mixture was added dropwise into the culture supernatant (1 mL/dish). Thereafter, the cells were incubated at 37° C. in 5% CO2 for 24 hours.
(§3) Mock-transfected cells were transfected with an empty vector, instead of a GPCR expression vector. In addition, LPA1- and LPA5-expressing cells and control cells thereof were also transfected with a Gαq/i1 expression vector (0.5 μg/dish). […]
(§4) The cells were incubated at 37° C. in 5% CO2 for 60 minutes, and the plate was then centrifuged (190×g, 2 min). […] Immediately after the dispensing and 1 hour after the dispensing, OD405 was measured. […]
(§5) EC50 and Emax were calculated by fitting the data to a 4-parameter logistic curve, using Graphpad Prism 6 (Graphpad).

The next data set addresses human LPA1 (Homo sapiens, UniProt Q92633). The data set is described as follows: AP-TGFα release assay, agonist activity against human LPA1. Here is the method: as §1, §2, §3, §4, §5
A further data set addresses human LPA4 (Homo sapiens, UniProt Q99677). Briefly: AP-TGFα release assay, agonist activity against human LPA4. How it is done: as §1, §2, §3, §4, §5
The test system of a further data set is ERK. Briefly: ERK-phosphorylating action in SW1353 cells (Western blotting). The conditions noted are these: 10 μM, 37° C. for 30 minutes, serum-free. Here is the method: SW1353 cells were seeded at a density of 3×10^4 cells/well on a 6-well plate. On the following day, the cell culture solution was exchanged with a serum-free culture solution, and the cells were cultured for 6 hours. Thereafter, 2carbaLPA dissolved in 0.1% BSA/PBS or 0.1% BSA/PBS (Vehicle) was added to the culture to a final concentration of 10 μM.

Another data set addresses human LPA3 (Homo sapiens, UniProt Q9UBY5). Briefly: AP-TGFα release assay, agonist activity against human LPA3. How it is done:
as §1, §2, §3, §4, §5

In the next data set the target is human LPA5 (Homo sapiens, UniProt Q9H1C0). Briefly: AP-TGFα release assay, agonist activity against human LPA5. Here is the method: as §1, §2, §3, §4, §5
Data set [1] is described as follows: Plasma 2ccPA and 2carbaLPA in rats after oral enteric-coated capsule of 2ccPA. The conditions noted are these: 2ccPA in enteric-coated capsule orally to SD rats, 2carbaLPA generated in the body, LC-MS/MS. Here is the method:
2ccPA (19.70±1.39 mg) was enclosed in a capsule (size 9, Torpac Inc., Fairfield, NJ)). In order to create an enteric-coated capsule, the capsule was coated with Eudragit S100/L100 (4/1, 11 mg/cm^2, pH 6.8) (Evonik Japan Co., Ltd., Tsukuba, Japan). The thus obtained capsule was orally administered to 7-week-old SD rats (body weight: 190 to 220 g), into each of which a cannula had been transvenously inserted in advance, using a capsule injector (Natsume Seisakusho, Tokyo, Japan). The cannula-inserted rats were purchased from Oriental Yeast Co., Ltd. Blood (300 μL each) was recovered from a carotid artery catheter over time. EDTA-Na2 (1 mg/mL) was added to the recovered blood, and the thus obtained blood was then centrifuged (1000×g, 10 minutes, 4° C.) to obtain plasma. The plasma sample was immediately frozen with liquid nitrogen, and was then preserved at −80° C. until the measurement. A lipid fraction was extracted from the plasma sample in the same manner as that described in the study paper (Journal of Chromatography B 1076 (2018) 15-21, Quantitative determination of cyclic phosphatidic acid and its carba analog in mouse organs and plasma using LC-MS/MS). The measurement of 2ccPA and 2carbaLPA using a mass spectrometer was carried out in the same manner as the measurement of ATX activity using a mass spectrometer described in Example 3(1).

The target of a further data set is human LPA2 (Homo sapiens, UniProt Q9HBW0). The data set is described as follows: AP-TGFα release assay, agonist activity against human LPA2. How it is done:
as §1, §2, §3, §4, §5

Data set [2] deals with T1, ATX (Homo sapiens, UniProt Q13822). The data set is described as follows: Measurement of ATX activity by choline oxidase, using LPC as substrate. The settings on record: ATX 50 nM, LPC 16:0 300 μM, compound 0.01 to 10 μM, 37° C. 120 minutes, absorbance 555 nm. How it is done:
ATX and LPC 16:0 were dissolved in 100 μL of a choline oxidase reaction solution (0.05% 4-aminoantipyrine, 0.05% TOOS (N-Ethyl-N-(2-hydroxy-3-sulfopropyl)-3-methylaniline, sodium salt, and dihydrate), 1 unit of peroxidase, 1 unit of choline oxidase, 50 mM Tris-HCl, pH 8.0, 140 mM NaCl, 5 mM KCl, 1 mM CaCl2, and 1 mM MgCl2) to result in final concentrations of 50 nM and 300 μM, respectively. Also, 2ccPA or 2carbaLPA was dissolved in the aforementioned choline oxidase reaction solution to a final concentration of 0.01 to 10 μM. The thus obtained solution was dispensed in a 96-well plate (100 μL/well). Thereafter, the plate was incubated at 37° C. for 120 minutes. After completion of the incubation, absorbance (555 nm) was measured using a plate reader (Biotek (Winooski, VT) Cytation 3 plate reader). Inhibitory activity was calculated according to the equation: inhibitory activity (%)=(1−increased absorbance 120 minutes after addition of inhibitor/increased absorbance 120 minutes after non-addition of inhibitor)×100.

For data set [3], the target named is T1, ATX. Briefly: Measurement of ATX activity using mass spectrometer (LPA 16:0 synthesis from LPC 16:0). The conditions noted are these: ATX 50 nM, LPC 16:0 10 μM, compound final concentration of 10, 37° C., LC-MS/MS. How it is done:
ATX and LPC 16:0 were suspended in 40 μL of a Tris buffer (50 mM Tris-HCl, pH 8.0, 140 mM NaCl, 5 mM KCl, 1 mM CaCl2, and 1 mM MgCl2) to result in final concentrations of 50 nM and 10 μM, respectively. Also, 2ccPA or 2carbaLPA was suspended in the aforementioned Tris buffer to result in a final concentration of 10 Thereafter, the obtained mixture was incubated at 37° C. At each reaction time, 160 μL of acidic methanol was added to and fully suspended in the reaction solution. Thereafter, the obtained solution was filtrated through a filter (0.2 μm Captiva Premium syringe filter, Agilent Technologies), so as to obtain a sample for QTRAP (registered trademark) 5500 triple quadrupole/linear ion trap mass spectrometer (SCIEX, Framingham, MA). The measurement was carried out in the same manner as that described in the study paper (Journal of Chromatography B 1076 (2018) 15-21, Quantitative determination of cyclic phosphatidic acid and its carba analog in mouse organs and plasma using LC-MS/MS). 2ccPA was measured at Q1/Q3=415.26/281.25, whereas 2carbaLPA was measured at Q1/Q3=433.27/151.02. Also, LPA was measured at Q1/Q3=409,24/153.00. The amount of LPA 16:0 that came to be synthesized at each reaction time was measured.

As for `CCCCCCCC/C=C\CCCCCCCC(=O)OCC(CO)CP(=O)(O)O` (stereo not shown), the “agonist activity against LPA6” value on human LPA6 (in words) is on record as “exhibited agonist activity”. In addition, the EC50 on human LPA6 (read-out: agonist activity (EC50) against LPA6, ΔLPA2/5/6 HEK293A cells, Ki16425 added, 60 minutes) was 43 nM; on human LPA1 (read-out: agonist activity (EC50) against LPA1, HEK293A cells, Gαq/i1 co-expressed, 60 minutes) it was 10 nM; on human LPA4 (read-out: agonist activity (EC50) against LPA4, HEK293A cells, Gαq/s co-expressed, Ki16425 added, 60 minutes), 0.7 nM; on human LPA3 (read-out: agonist activity (EC50) against LPA3, ΔLPA2/5/6 HEK293A cells, 60 minutes) it was 1.2 nM; at human LPA5 (read-out: agonist activity (EC50) against LPA5, ΔLPA2/5/6 HEK293A cells, Gαq/i1 co-expressed, Ki16425 added, 60 minutes) it was 27 nM; at human LPA2 (read-out: agonist activity (EC50) against LPA2, ΔLPA2/5/6 HEK293A cells, Gαq/s co-expressed, 60 minutes), 90 nM. On human LPA1 (in words), the “agonist activity against LPA1” value is recorded as “exhibited agonist activity”. Also, at human LPA4 (in words), the “agonist activity against LPA4” value was “exhibited agonist activity”. The “ERK phosphorylation (pERK band)” value in the data set on ERK was “can phosphorylate ERK”. Besides, on human LPA3 (in words), the “agonist activity against LPA3” value is “exhibited agonist activity”. Further, the “agonist activity against LPA5” value on human LPA5 (in words) is listed as “exhibited agonist activity”. In addition, the “time of peak of 2carbaLPA in blood sample after 2ccPA administration” value in data set [1] is “almost the same above period of time as a peak”. In addition, the “agonist activity against LPA2” value at human LPA2 (in words) is “exhibited agonist activity”. Further, the “inhibition of ATX activity” value on ATX [2] is “inhibit ATX activity in a concentration-dependent manner”. The “synthesis of LPA 16:0 by ATX” value on ATX [3] is “the synthesis of LPA was suppressed”.
